Measurements from patent publication US5770623A, “Argine antagonists for inhibition of systemic hypotension associated with nitric oxide production or endothelial derived relaxing factor” (Board of Regents, The University of Texas System, priority 1995, dated 1998).

Columns and labels:
[1] = test system: N=C(N)NCCC[C@H](N)C(=O)O; assay: cells, lysate or membranes named; settings: other: utilization of L-arginine by the NO-forming enzyme pathway; Lineweaver-Burke; pH 8.0
[2] = test system: murine brain endothelial cells (MBEC); assay: Nitrite production by MBEC exposed to cytokines / immunomodulators (Griess assay); type: cell-based; settings: IFN 100 U/ml, TNF 500 U/ml, IL-1 10 U/ml, endotoxin 1 μg/ml; 48 hours
Experimental: Endothelial cells--MBEC's were isolated from murine brain microvessels and cultured on gelatin-coated tissue culture dishes in DME/F12 media supplemented with 2% PPPHS, 5% FBS (Hyolone), 50 μg/ml ECGF (Biomed Tech), and 10 U/ml heparin (Sigma) as previously described (Belloni et al. 1989). The endothelial derivation of MBEC's was determined by the presence of a non-thrombogenic surface to platelets and immunofluorescent staining for Factor VIII related antigen. MBEC's were used between passage 6-9 for all experiments.
Nitrite Assay--MBE cells were cultured on gelatin-coated well plates (Corning) in 100 μl of culture medium and treated with cytokines at 3 days post-confluence. After 48 hours, nitrite production was determined by a colorimetric assay. […] All treatments were performed in triplicate and data presented as the mean value±standard deviation. […]
The accumulation of nitrites in the culture medium was also found to occur in a time dependent manner with the first detectable increase at 8 hours after addition of TNF and IFN (FIG. 3). […] Although both TNF and IFN have been reported to cause morphological alterations in human umbilical cord endothelial cells, no changes in the gross morphology of these murine microvascular endothelial cells was detected under these conditions.

Row | Substance | Km [1] | effect on nitrite production by MBEC [2]
1 | EMT6 enzyme system (NO formation from L-arginine) (Mus musculus) | 61.6 µM | –
2 | Il-2: interleukin-2 | – | Neither muramyl dipeptide (MDP) or Il-2 alone, or in combination with IFN effected nitrite production
